In patent publication US11839613B2, “Pyrimidine derivatives as PGE2 receptor modulators” (IDORSIA PHARMACEUTICALS LTD, priority 2017, dated 2023) one finds IC50 data, which are given here for seven compounds.

By UniProt entry, the sequences of proteins in these tests, tags left out.
UniProt P43116, whole entry: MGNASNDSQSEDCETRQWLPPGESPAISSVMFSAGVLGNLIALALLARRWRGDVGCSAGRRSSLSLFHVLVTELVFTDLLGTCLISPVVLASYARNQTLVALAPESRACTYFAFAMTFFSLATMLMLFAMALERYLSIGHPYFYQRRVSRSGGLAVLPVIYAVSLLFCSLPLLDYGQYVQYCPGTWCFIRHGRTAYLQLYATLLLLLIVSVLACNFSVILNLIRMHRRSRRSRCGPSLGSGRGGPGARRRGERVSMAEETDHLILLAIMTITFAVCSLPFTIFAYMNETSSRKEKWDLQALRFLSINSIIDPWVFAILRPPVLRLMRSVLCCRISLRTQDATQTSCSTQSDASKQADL
UniProt P35408, whole entry: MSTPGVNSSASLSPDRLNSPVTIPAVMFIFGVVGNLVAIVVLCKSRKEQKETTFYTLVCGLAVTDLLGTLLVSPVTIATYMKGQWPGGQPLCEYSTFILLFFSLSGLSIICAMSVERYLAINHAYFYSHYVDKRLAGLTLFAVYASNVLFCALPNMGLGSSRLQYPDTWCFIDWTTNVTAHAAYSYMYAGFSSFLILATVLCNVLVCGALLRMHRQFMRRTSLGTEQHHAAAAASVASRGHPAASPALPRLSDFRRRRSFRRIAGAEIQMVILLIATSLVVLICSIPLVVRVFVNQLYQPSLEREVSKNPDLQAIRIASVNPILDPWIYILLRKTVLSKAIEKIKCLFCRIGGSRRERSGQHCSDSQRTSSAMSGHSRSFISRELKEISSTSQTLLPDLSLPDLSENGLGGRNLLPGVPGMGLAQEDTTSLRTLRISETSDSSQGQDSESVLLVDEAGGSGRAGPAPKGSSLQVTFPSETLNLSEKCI

Broadly, the IC50 is the concentration that inhibits the measured activity by half.

The structures appear in SMILES notation. Where two headings read alike, the source gives them in different places.

What all share (type): cell-based
Test [1] addresses EP2 (Homo sapiens (Human), UniProt P43116). The test is described as follows: hEP2 cAMP assay (SF295 glioblastoma cells, HTRF cAMP). (Changes in cAMP serve as a functional read-out for many G protein-coupled receptors.)
Test [2] concerns the target EP4 (Homo sapiens (Human), UniProt P35408). Nature of the test: hEP4 cAMP assay (BT549 breast cancer cells, HTRF cAMP).
Test [3] addresses PTGER2 (EP2) (Homo sapiens (Human), UniProt P43116). Nature of the test: hEP2 b-arrestin assay (PathHunter HEK 293 PTGER2 b-arrestin cells). The following applies: read-out: hEP2 b-arr IC50; antagonistic activity, beta-arrestin assay; tested form: ammonium salt.
The mark [4] stands for this setting: read-out: hEP2 cAMP IC50, antagonistic activity, tested form: ammonium salt.
[5] abbreviates: read-out: hEP4 cAMP IC50, antagonistic activity, PGE2 6 nM, tested form: ammonium salt.

`CCOc1cc(-c2cc(NCCc3ccc4ccoc4c3)ncn2)ccc1C(=O)O`: the IC50 was 255 nM in test [1] (setting [4]) and 540 nM in test [2] (setting [5]).
In the case of `CCOc1cc(-c2cc(NCCc3ccc4occc4c3)ncn2)sc1C(=O)O`, the IC50 in test [3] worked out at 61 nM; in test [1] (setting [4]) it was 52 nM; in test [2] (setting [5]) it was 24 nM.
For `O=C(O)c1ccc(-c2cc(NCCc3ccc4ccoc4c3)ncn2)cc1OC1CCC1`, the half-maximal inhibitory concentration (IC50) in test [3] worked out at 212 nM; in test [1] (setting [4]) it was 186 nM; in test [2] (setting [5]) it was 373 nM.
Consider `CCOc1cc(-c2cc(NCCc3ccc4ccoc4c3)ncn2)sc1C(=O)O`, for which the half-inhibitory concentration (IC50) in test [3] is 47 nM; in test [1] (setting [4]), 45 nM; in test [2] (setting [5]), 22 nM.
Consider `O=C(O)c1ccc(-c2cc(NCCc3ccc4occc4c3)ncn2)cc1OC1CCC1`, for which the half-inhibitory concentration (IC50) in test [3] was determined as 168 nM; in test [1] (setting [4]), 193 nM; in test [2] (setting [5]) it was 351 nM.
The corresponding values for `CCOc1cc(-c2cc(NCCc3ccc4occc4c3)ncn2)ccc1C(=O)O` are 501 nM, 233 nM and 751 nM.
Take `O=C(O)c1c[nH]c2cc(-c3cc(NCCc4ccc5sccc5c4)ncn3)ccc12`: the IC50 is 458 nM in test [1] (read-out: hEP2 cAMP IC50, antagonistic activity) and 295 nM in test [2] (read-out: hEP4 cAMP IC50, antagonistic activity, PGE2 6 nM).
